The values below come from PubChem BioAssay AID1008 (NMMLSC, 2008).

Sequences of proteins named here, by UniProt entry; tags and fusion partners are left off.
UniProt Q16548, whole entry: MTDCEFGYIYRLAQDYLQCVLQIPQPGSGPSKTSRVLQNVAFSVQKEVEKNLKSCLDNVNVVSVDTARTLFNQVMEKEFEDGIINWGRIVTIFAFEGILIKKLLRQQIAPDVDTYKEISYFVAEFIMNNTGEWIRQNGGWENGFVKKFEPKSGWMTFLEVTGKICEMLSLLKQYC

Only a part is listed here, and it is no random draw. Some tests of the compounds listed are not included; inactive here does not mean inactive elsewhere. The source made the active and inactive calls. No stated cut-off is given here; in the data, active means inhibition above about 40%.

This assay concerns the target Bcl-2-related protein A1 (Homo sapiens) (UniProt Q16548). Description: Bfl-1/Bim complex disruptors – biochemical, multiplexed, bead-based flow cytometry, primary screen (AID 1008).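 Further: 0% = wells without compound plus tracer and 100% = blocker peptide.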 Conditions: Bim-Bfl-1 binding inhibition, at 10 µM, stronger effect = higher value. For orientation: A flow cytometer gives signals particle by particle.
For `Cc1ccccc1C(=O)NCC1(N2CCCCC2)CCCCC1`, the inhibition was inactive: 3%.

With `CN(C)C1CCCC1OC(=O)C(O)(c1ccccc1)c1ccccc1` (centres undefined), the inhibition was inactive: -15%.

For `C=CCN1CCN(CCOC(=O)C(O)(c2ccccc2)c2ccccc2)CC1`, the inhibition was inactive: -2%.

With `CCN1CCCC(OC(=O)C2(O)c3ccccc3C=Cc3ccccc32)C1` (centres undefined), the inhibition is inactive: -1%.

Consider `O=C(NCC1(N2CCCCC2)CCCCC1)c1cc([N+](=O)[O-])ccc1Cl`, for which the inhibition is inactive: 7%.

Take `CC(C)N1C(=O)CC2(CCN(CCOC(=O)C(O)(c3ccccc3)c3ccccc3)CC2)C1=O`: the inhibition is inactive: -1%.

In the case of `O=C(OC1CN2CCC1CC2)C(CO)(c1ccccc1)c1ccccc1` (centres undefined), the inhibition was inactive: -15%.

`CN(C)c1cccc(C(=O)NCC2(N(C)C)CCCCC2)c1`: the inhibition is inactive: -19%.

For the compound `COc1cccc(C(=O)NCC2(N3CCCCC3)CCCCC2)c1`, the inhibition is inactive: -6%.

The term inhibition denotes the drop in the measured response relative to a control, in per cent.
